Measurements as given in ChEMBL document CHEMBL5346928, “Discovery of orally effective and safe GPR40 agonists by incorporating a chiral, rigid and polar sulfoxide into β-position to the carboxylic acid” (Eur J Med Chem, 2023).

Target: T1, Free fatty acid receptor 4 (Homo sapiens) (UniProt Q5NUL3)
T1 sequence (whole entry): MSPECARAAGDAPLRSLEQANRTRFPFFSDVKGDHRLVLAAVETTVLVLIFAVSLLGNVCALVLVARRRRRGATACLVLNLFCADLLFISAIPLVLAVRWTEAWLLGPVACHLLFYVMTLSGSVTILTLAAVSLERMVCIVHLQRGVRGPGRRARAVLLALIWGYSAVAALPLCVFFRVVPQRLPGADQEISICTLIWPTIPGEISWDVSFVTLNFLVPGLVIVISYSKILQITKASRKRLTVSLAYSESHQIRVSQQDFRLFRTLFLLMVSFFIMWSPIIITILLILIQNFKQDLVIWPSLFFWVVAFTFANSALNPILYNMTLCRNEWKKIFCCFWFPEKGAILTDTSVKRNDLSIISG
Assay: Agonist activity at human GPR120 expressed in HEK293 cells by Fluo4-AM dye based intracellular calcium flux assay
Type: functional, cell-based

Activity | SMILES
inactive | Cc1cc(OCCCS(C)(=O)=O)cc(C)c1-c1cccc(COc2ccc([S@@+]([O-])CC(=O)O)cc2)c1
inactive | Cc1cccc(C)c1-c1cccc(COc2ccc([S@@+]([O-])CC(=O)O)cc2)c1

Activity calls are given as the source filed them. The calls are words filed in the database; no cut-off is given here.
